# Apparent affinities of Ab-14 variants for a coronavirus HR2 peptide

Values reported by Engelhart et al. 2022, doi:10.1038/s41597-022-01779-4 (FLAb copy).

Target: peptide PDVDLGDISGINAS, taken from heptad repeat 2 (HR2) of SARS-CoV-2 spike.

Parent: Ab-14, a human scFv built as VH, three GGGGS repeats, VL. Only the CDRs of the light chain vary.
VH: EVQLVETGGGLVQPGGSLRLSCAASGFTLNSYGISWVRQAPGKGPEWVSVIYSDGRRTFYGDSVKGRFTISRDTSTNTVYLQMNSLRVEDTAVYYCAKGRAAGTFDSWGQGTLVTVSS
VL: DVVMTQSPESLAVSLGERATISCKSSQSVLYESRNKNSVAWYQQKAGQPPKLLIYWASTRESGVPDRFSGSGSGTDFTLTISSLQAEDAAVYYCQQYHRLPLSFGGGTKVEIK

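The parent was found by panning a naive human phage display library on the peptide. In library AAYL50, one, two or three CDR residues were substituted; doubles and triples were drawn at random. Affinity was read by AlphaSeq, a pooled yeast mating assay with surface-displayed partners. Binding brings cells together so that they mate, and sequencing counts the barcode pairs among the diploids. The ratio of observed to expected reads was calibrated, replicate by replicate, on BCL2-family standards whose Kd was known from biolayer interferometry. Mating was done three times.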

Each variant is given by its three light chain CDRs, as the data file delimits them; those of the parent are KSSQSVLYESRNKNSVA, WASTRES, QQYHRLPLS. Values are log10 of the apparent Kd in nM; lower means stronger binding. Replicates are averaged; those with no signal do not enter the mean. "n.d." marks a missing value. The strain was present, yet no cells mated with the target were sequenced in that replicate, which points to weak or no binding. Empty control strains, which show no peptide, gave a signal in 18% of pairings with library AAYL50; the median was 4.19 and 95% of these signals were weaker than 2.99. No background was subtracted. For each scFv, signals with the empty controls are counted beside the result, with their mean in brackets. For reference, the parent read 0.65 as the reference entry and 1.68 as a member of this library.

CDR-L1,CDR-L2,CDR-L3,"log10 Kd, replicates","mean, log10 nM",empty controls
KSSSSVLYESRNKNSIA,WFSTRES,QQYHRLPLS,n.d. / 3.86 / n.d.,3.86,0 of 9
KSSQSVLYESRNKNSVA,WACTRES,QQYHRYPLS,n.d. / n.d. / n.d.,n.d.,0 of 9
YSSYSVLYNSRNKNSVA,WASTRES,QQYHRLPLS,1.95 / 1.90 / 2.03,1.96,3 of 9 (4.60)
KSSQSVLYESRWKNSVA,WASTAES,QQYHRLPDS,4.83 / n.d. / 5.45,5.14,6 of 9 (4.19)
KSSQGVLYESRNKNSTN,WASTRES,QQYHRLPLS,n.d. / n.d. / n.d.,n.d.,0 of 9
KSSQSVLYESRNKNSVA,WLSTLES,QQYHRLPLS,4.81 / n.d. / 3.82,4.31,3 of 9 (4.91)
KSSQSVLYESRNKNSVW,WASTRES,QQYHRLQIS,3.92 / n.d. / n.d.,3.92,1 of 9 (3.87)
KSSQSVLYESRNKNSVA,GASTREF,QQYHRLELS,-0.23 / 0.17 / -0.17,-0.08,3 of 9 (3.73)
KSSQSVLYESRNKNSVA,WVSTRES,QQHHRLPLS,n.d. / 3.98 / 6.13,5.06,3 of 9 (4.12)
ISSQSVLYESRNKNSVA,WASTRHS,QQYHRLPLG,4.55 / 3.13 / n.d.,3.84,1 of 9 (4.10)
KSNQSVLVEARNKNSVA,WASTRES,QQYHRLPLS,1.01 / 1.17 / 1.38,1.19,3 of 9 (3.22)
KSSLSVLYVSRNKNSGA,WASTRES,QQYHRLPLS,5.62 / 2.74 / n.d.,4.18,4 of 9 (3.80)
KSSQSVLYESRNKESVA,WASTRET,QQYGRLPLS,1.74 / 1.77 / 2.43,1.98,1 of 9 (4.66)
KVSQSVLYEPRAKNSVA,WASTRES,QQYHRLPLS,0.90 / 0.95 / 1.13,0.99,4 of 9 (4.18)
KSSQSVLYEQRNKISVA,WASTRES,QQYPRLPLS,n.d. / n.d. / n.d.,n.d.,0 of 9
KSSQPVLYESRNKNSVA,WAITRES,QQWHRLPLS,n.d. / n.d. / n.d.,n.d.,1 of 9 (3.05)
KSSQSVLYESRNGNSVG,WASTRES,QQYERLPLS,5.18 / n.d. / 3.64,4.41,2 of 9 (3.96)
KSSQSVLYESRNKISVR,WASTREG,QQYHRLPLS,n.d. / n.d. / n.d.,n.d.,1 of 9 (3.44)
KSSQSVLYHSRNKNSVA,WASTRES,QQYHRLPDS,2.13 / 2.14 / 2.17,2.15,0 of 9
KRSHSFLYESRNKNSVA,WASTRES,QQYHRLPLS,2.37 / 1.93 / 2.39,2.23,2 of 9 (4.10)
TVSQSVLYESRNKNSVA,WASTRES,QQYHRLPLD,2.45 / 2.71 / n.d.,2.58,1 of 9 (4.19)
KWSQNVLYESRNKNSVA,WDSTRES,QQYHRLPLS,3.62 / 3.65 / 4.31,3.86,3 of 9 (4.28)
KSSQSVLYESRNKNSVN,WASTRES,QQIHRLMLS,n.d. / n.d. / n.d.,n.d.,0 of 9
KSSWSVLYESRNKNSVA,WASTNES,QQYHRLPVS,4.69 / n.d. / n.d.,4.69,5 of 9 (4.57)
KSSQSVVYESRNKNSVA,WAETMES,QQYHRLPLS,n.d. / n.d. / n.d.,n.d.,1 of 9 (3.71)
KSSQHVLYESRNKNSVY,WANTRES,QQYHRLPLS,n.d. / n.d. / n.d.,n.d.,0 of 9
KSSQSVLYESCNKTSVA,WASTRES,QQYHRTPLS,6.72 / 3.77 / n.d.,5.25,9 of 9 (4.34)
KSSQSVSYESRNKNSVI,WLSTRES,QQYHRLPLS,n.d. / n.d. / n.d.,n.d.,2 of 9 (3.91)
KSSQSVLYESRNNNCVA,WASTRTS,QQYHRLPLS,2.80 / 2.51 / 2.98,2.76,3 of 9 (4.24)
KSSQSVLYESRLKNSVA,WASTRES,QQYHRLPLK,n.d. / 4.06 / n.d.,4.06,5 of 9 (4.77)
KSSQSVLYESRNKNSVA,WASTRHS,QQYHRLELS,n.d. / n.d. / n.d.,n.d.,1 of 9 (4.05)
KSSQSELYESRNKNSVA,WASHREW,QQYHRLPLS,0.89 / 1.24 / 1.09,1.07,1 of 9 (4.05)
KSSQSVLYLSRNKNSVA,IASTRES,QQYHRTPLS,n.d. / n.d. / n.d.,n.d.,0 of 9
KSSQSVLYCSRNDNSVA,WASTSES,QQYHRLPLS,n.d. / n.d. / n.d.,n.d.,5 of 9 (4.72)
KSSQSVLYESRNKNDVA,WASIIES,QQYHRLPLS,3.04 / n.d. / n.d.,3.04,0 of 9
KSSQSVLYHSRNVNSVA,WASTRES,AQYHRLPLS,1.92 / 2.13 / 2.34,2.13,3 of 9 (4.86)
KSSQSVLYESPNKNSVA,AASTRES,QQYHRLSLS,3.09 / 2.74 / 3.77,3.20,2 of 9 (4.04)
KSSQAVLYESRNKHSVA,WASCRES,QQYHRLPLS,4.18 / 3.75 / n.d.,3.97,2 of 9 (4.20)
KSSQSVLYESRNKNSEA,WASTRES,QQYHRRPMS,n.d. / n.d. / n.d.,n.d.,0 of 9
KSSQSVSYESRNKNMVA,WASTREP,QQYHRLPLS,4.01 / 4.69 / n.d.,4.35,3 of 9 (3.69)
KSSQSVQYESRNKNSVA,WASTREE,QQYHRLSLS,1.74 / 1.37 / 0.98,1.37,0 of 9
KSSQNVLYESRNKNSVA,WASTRVS,QQYHRLPLS,0.58 / 0.72 / 0.65,0.65,3 of 9 (4.86)
KSSQSVLYESHNKNSVA,WPSTRES,QQYHRKPLS,n.d. / n.d. / n.d.,n.d.,3 of 9 (4.35)
KSSQSVLYESRNKNSVA,WVSTNES,QQYHRLPLS,n.d. / n.d. / n.d.,n.d.,1 of 9 (5.44)

Repeated from above, the 4 best binders with a signal in all replicates:

CDR-L1,CDR-L2,CDR-L3,"log10 Kd, replicates","mean, log10 nM",empty controls
KSSQSVLYESRNKNSVA,GASTREF,QQYHRLELS,-0.23 / 0.17 / -0.17,-0.08,3 of 9 (3.73)
KSSQNVLYESRNKNSVA,WASTRVS,QQYHRLPLS,0.58 / 0.72 / 0.65,0.65,3 of 9 (4.86)
KVSQSVLYEPRAKNSVA,WASTRES,QQYHRLPLS,0.90 / 0.95 / 1.13,0.99,4 of 9 (4.18)
KSSQSELYESRNKNSVA,WASHREW,QQYHRLPLS,0.89 / 1.24 / 1.09,1.07,1 of 9 (4.05)